By inhibition is commonly meant how much of the control response was suppressed.

Chains of the proteins cited; added tags and fusions are not shown.
UniProt Q8N6T7, whole entry: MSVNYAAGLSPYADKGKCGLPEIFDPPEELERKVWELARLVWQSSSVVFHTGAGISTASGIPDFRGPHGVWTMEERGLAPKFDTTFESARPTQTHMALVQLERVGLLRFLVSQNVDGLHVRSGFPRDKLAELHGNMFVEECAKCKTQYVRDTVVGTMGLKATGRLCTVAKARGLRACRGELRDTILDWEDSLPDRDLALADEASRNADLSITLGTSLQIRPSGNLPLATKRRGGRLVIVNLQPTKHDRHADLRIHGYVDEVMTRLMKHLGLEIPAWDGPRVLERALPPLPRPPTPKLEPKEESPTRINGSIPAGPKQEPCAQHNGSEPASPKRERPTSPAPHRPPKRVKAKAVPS

Activity calls are given as the source filed them. The calls are words filed in the database; no cut-off is given here.

From ChEMBL document CHEMBL6078679, “Structure-Guided Discovery of Subtype Selective SIRT6 Inhibitors with a β-Carboline Skeleton for the Treatment of Breast Cancer” (J Med Chem, 2024) come the findings set out here.

One experiment concerns the target T1, NAD-dependent protein deacetylase sirtuin-3, mitochondrial (Homo sapiens) (UniProt Q9NTG7).
T1 sequence (whole entry): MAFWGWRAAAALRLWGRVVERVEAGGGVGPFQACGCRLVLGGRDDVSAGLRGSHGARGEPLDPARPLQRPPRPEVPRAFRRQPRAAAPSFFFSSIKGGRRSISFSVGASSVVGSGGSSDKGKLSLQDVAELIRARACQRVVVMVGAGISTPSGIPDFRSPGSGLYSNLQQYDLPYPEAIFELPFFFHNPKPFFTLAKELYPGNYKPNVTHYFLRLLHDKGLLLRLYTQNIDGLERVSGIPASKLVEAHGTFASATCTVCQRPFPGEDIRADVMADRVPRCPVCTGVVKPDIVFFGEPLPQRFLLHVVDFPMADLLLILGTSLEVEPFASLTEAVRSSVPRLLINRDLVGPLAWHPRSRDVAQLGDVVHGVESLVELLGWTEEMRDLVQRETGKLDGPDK
In words: Inhibition of full length N-terminal his-tagged SIRT3 (unknown origin) deacetylation activity expressed in Escherichia coli BL21 (DE3) using RHKK-Ac-AMC as substrate at 50 uM incubated for 2 hrs by BioTek microplate reader analysis relative to control.
Compound `O=C(NCc1ccccn1)c1cc2c(cn1)[nH]c1ccccc12` came in with an inhibition of 60%.
Compound `O=C(O)C1OC(Oc2cc3oc(-c4ccccc4)cc(=O)c3c(O)c2O)C(O)C(O)C1O` (stereo unspecified) registered an inhibition of 17%.
As for `O=c1c(O)c(-c2ccc(O)c(O)c2)oc2cc(O)cc(O)c12`, the inhibition is 17%.
For the compound `O=C1c2cccc(O)c2C(=O)c2c(O)cccc21`, the inhibition was determined as 17%.
On the same count and under the same terms, the value for `O=C1c2c(O)cccc2Cc2cccc(O)c21` was 17%.

Another experiment deals with NAD-dependent protein deacylase sirtuin-6 (Homo sapiens) (UniProt Q8N6T7). The experiment can be described thus: Inhibition of SIRT6 in human MCF7 cells assessed as increase in H3K56ac acetylation level at 100 uM incubated for 48 hrs by Western blot analysis. In kind it is cell-based. In general terms: In western blotting, separated proteins are transferred to a membrane and probed.
`O=C(Nc1ccc(O)c(C(=O)O)c1)c1cccc(NC(=O)c2ccco2)c1`: the inhibition result is “inactive”.
